Measurements from patent US20150342165A1, “HUMANIZED MOUSE AND METHODS OF USING THE SAME” (City of Hope, priority 2014, published 2015).

Tested on: GM-HSPC and their progeny
Conditions: drug treated mice
Procedure: All animals except control mice received 20 mg/kg O^6BG (Sigma-Aldrich, St. Louis, Mo.) followed by 5 mg/kg BCNU (Sigma-Aldrich, St. Louis, Mo.) mouse 1.5 hour later via IP injection. Drug doses were administered at either at the 7th and 8th or 7th, 8th, and 9th weeks post-transplantation. O^6BG was prepared in 35% PEG-400 (Sigma-Aldrich, St. Louis, Mo.) and 60% injectable saline.
Lentiviral vector was produced by calcium phosphate precipitation in HEK293T cells as previously described by Li M J et al. (2005). CD34+ cells were pre-stimulated overnight in SFT6. Lentiviral transduction was conducted at 1×10^6 cells/mL on Retronectin™ (Takara, Otsu-Shiga Japan)-coated non-tissue culture T-75 flask for 24 h in the presence of […] rapamycin (Sigma-Aldrich, St. Louis, Mo.). […]
Mice were necropsied at 16 or 25 weeks post transplantation for analysis of engraftment. […] Samples were analyzed using a Gallios flow cytometer (Beckman Coulter, Hialeah, Fla.) and data analyzed with FCS Express software (De Novo Software, Los Angeles, Calif.).
Lentiviral vectors expressing unique combinations of small anti-HIV RNAs expressed from a naturally occurring micro RNA cluster (MCM-7) are known. […] Two weeks later (11 weeks following transplantation) animals were necropsied and the level of engraftment of the spleen and bone marrow were determined.

“O^6-benzylguanine; bis-chloronitrosourea [O^6BG/BCNU]” was tested, and the “Deficiencies in lineage development” value was “No deficiencies”.
